For one compound, Activity results are on record in ChEMBL document CHEMBL4270561, “Biological activity of doubly modified salinomycin analogs - Evaluation in vitro and ex vivo” (Eur J Med Chem, 2018).

The nature of this assay: Cell cycle arrest in human ALL5 cells assessed as accumulation at S-phase at 5 times antiproliferative IC50 after 96 hrs by propidium iodide staining based flow cytometry (reference value: 7.52%). The assay is classed as functional.

In the case of `COc1cccc2c1C(=O)c1c(O)c3c(c(O)c1C2=O)C[C@@](O)(C(=O)CO)C[C@@H]3O[C@H]1C[C@H](N)[C@H](O)[C@H](C)O1` [DOXORUBICIN], the Activity was determined as 3.91%.
